Several values for one entry are separate records, joined by “and”; a condition that tells them apart may be missing. Identical values can stand only once. Like-named read-outs stand apart in the source and are kept apart here.
Tests used:
CB1 receptor [1] = biological target: T1, CB1 receptor (Homo sapiens, UniProt P21554); experiment: [11C]MePPEP PET, VT by rank shaping regularised spectral analysis (RS-SA); type: in vivo; parameters: assess the stability of CB1-receptor quantification in humans in vivo; from tissue; host or cells: living human brain (healthy volunteers), in vivo PET; VT median: unit not given beside the values
Method: (§1) Continuous and intermittent blood samples were collected to allow the subsequent generation of metabolite-corrected arterial plasma time–activity curves (TACs) ([Hammers et al., 2008]). During the first 15 min blood was withdrawn continuously at a rate of 300 ml/h and radioactivity measured in a BGO detection system ([Jones et al., 1994]). To quantify plasma and whole blood radioactivity, as well as to allow quantification of the parent fraction of the radiotracer, intermittent discrete (10 ml) samples were taken with heparinised syringes before the scan (baseline) and at the following time points after scan start: 3, 5, 10, 15, 20, 30, and 50 min. At 75 min, a larger 17 ml sample was taken to allow quantification despite radioactivity decay. […] Continuous plasma input functions (IF) were derived by cross-calibration and combination of the continuous and discrete data, multiplication with the fitted plasma-over-blood ratio, and correction for parent radiotracer fraction, as described in detail in previous studies ([Hammers et al., 2007a], [Jones et al., 1994]).
VT values were generated directly from dynamic data sampled using ROIs with rank shaping (RS; orthogonalized-functional-base) regularisation of SA ([Turkheimer et al., 2003]) using in-house “Clickfit” software. As previously described by [Turkheimer et al. (2003)], we used the metabolite-corrected IF, a logarithmically spaced basis, an exponential range of bases extending to − 3.2, and the regional tissue TAC. TACs were weighted according to ([Gunn et al., 1998]):(3) Wi=Li/Tiforframei=1,2,3…35 [wi — weight for frame i; Li — length of frame i (seconds); and Ti — rate of true coincidences (per second)].
The VT for each ROI was then obtained as the plateau of the VT(R), where R is the expected signal-to noise ratio that is used as the regularisation parameter (R) in rank-shaping (Fig. 2; ([Turkheimer et al., 2003])).

The chains behind the UniProt entries cited, without tags or fusion partners.
UniProt P21554, whole entry: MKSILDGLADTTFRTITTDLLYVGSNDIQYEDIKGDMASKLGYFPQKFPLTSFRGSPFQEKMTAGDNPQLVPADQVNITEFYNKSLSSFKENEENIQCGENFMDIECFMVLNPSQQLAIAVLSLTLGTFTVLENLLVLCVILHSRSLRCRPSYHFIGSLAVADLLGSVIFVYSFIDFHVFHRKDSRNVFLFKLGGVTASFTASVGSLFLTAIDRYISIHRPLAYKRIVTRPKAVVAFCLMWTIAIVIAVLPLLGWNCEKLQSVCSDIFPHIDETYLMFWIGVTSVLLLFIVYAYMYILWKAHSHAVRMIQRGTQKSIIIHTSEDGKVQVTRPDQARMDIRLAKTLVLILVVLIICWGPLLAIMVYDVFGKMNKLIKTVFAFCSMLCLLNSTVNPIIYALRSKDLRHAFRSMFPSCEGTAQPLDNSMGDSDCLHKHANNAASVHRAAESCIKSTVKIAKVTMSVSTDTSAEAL

CB1 receptor [2] = biological target: T1, CB1 receptor; conditions: SRTM; for ICC of BPND / Median % diff (test–retest) of BPND / Median BPND / Mean %BS-CV of BPND: pons pseudo-reference
CB1 receptor [3] = biological target: T1, CB1 receptor; experiment: [11C]MePPEP PET, VT by reversible two-compartment model with variable blood volume (2kbv); type: in vivo; parameters: assess the stability of CB1-receptor quantification in humans in vivo; from tissue; host or cells: living human brain (healthy volunteers), in vivo PET
Method: as §1
In this model, three microparameters are derived: K1 is the influx of the ligand from the plasma to the tissue compartment containing free, non-specifically bound, and specifically bound ligand, k2 is the efflux constant from the ROI back to plasma ([Cunningham et al., 1991], [Huang et al., 1980]), and bv is a variable blood volume term. VT is then calculated according to the compartmental model equation ([Watabe et al., 2006]):(1) VT=K1/k2.

SMILES: COc1cccc([C@H]2C[C@@H](N[C@H](C)c3ccccc3)C(=O)N2c2ccc(C(F)(F)F)cc2)c1 [[^11C]MePPEP, (3R,5R)-5-(3-methoxy-phenyl)-3-((R)-1-phenyl-ethylamino)-1-(4-trifluoro-methyl-phenyl)-pyrrolidin-2-one]
- Ratio pallidum/pons of VT (CB1 receptor [1]): 2.4
- Median % diff (test–retest) of VT, mean (SD) across regions (CB1 receptor [1]; 8 ROIs): 15.0 (4.7) % and 15.0 ± 4.6%
- ICC of VT (CB1 receptor [1]; ACG): 0.86
- Mean BS % CV of VT (CB1 receptor [1]; ACG): 34.0%
- Median % diff (test–retest) of VT (CB1 receptor [1]; ACG): 14.6%
- ICC of VT (CB1 receptor [1]; Accumbens): 0.73
- Mean BS % CV of VT (CB1 receptor [1]; Accumbens): 36.5%
- Median % diff (test–retest) of VT (CB1 receptor [1]; Accumbens): 18.5%
- VT median (CB1 receptor [1]; Accumbens): 8.6
- ICC of VT (CB1 receptor [1]; Caudate): 0.82
- Mean BS % CV of VT (CB1 receptor [1]; Caudate): 42.2%
- Median % diff (test–retest) of VT (CB1 receptor [1]; Caudate): 11.6%
- VT median (CB1 receptor [1]; Caudate): 8.1
- ICC of VT (CB1 receptor [1]; Hippocampus): 0.81
- Mean BS % CV of VT (CB1 receptor [1]; Hippocampus): 35.9%
- Median % diff (test–retest) of VT (CB1 receptor [1]; Hippocampus): 14.4%
- VT median (CB1 receptor [1]; Hippocampus): 8.2
- ICC of VT (CB1 receptor [1]; IFG): 0.85
- Mean BS % CV of VT (CB1 receptor [1]; IFG): 34.8%
- Median % diff (test–retest) of VT (CB1 receptor [1]; IFG): 15.6%
- ICC of VT (CB1 receptor [1]; Pallidum): 0.77
- Mean BS % CV of VT (CB1 receptor [1]; Pallidum): 39.7%
- Median % diff (test–retest) of VT (CB1 receptor [1]; Pallidum): 23.3%
- ICC of VT (CB1 receptor [1]; Pons): 0.90
- Mean BS % CV of VT (CB1 receptor [1]; Pons): 32.3%
- Median % diff (test–retest) of VT (CB1 receptor [1]; Pons): 7.4%
- ICC of VT (CB1 receptor [1]; Thalamus): 0.85
- Mean BS % CV of VT (CB1 receptor [1]; Thalamus): 34.7%
- Median % diff (test–retest) of VT (CB1 receptor [1]; Thalamus): 14.9%
- ICC of BPND (CB1 receptor [2]; ACG): 0.50
- Median % diff (test–retest) of BPND (CB1 receptor [2]; ACG): 40.2%
- Median BPND (CB1 receptor [2]; ACG): 1.1
- Mean %BS-CV of BPND (CB1 receptor [2]; Accumbens): 157.4%
- Median % diff (test–retest) of BPND (CB1 receptor [2]; Accumbens): 53.0%
- Median BPND (CB1 receptor [2]; Accumbens): 1.1
- ICC of BPND (CB1 receptor [2]; Caudate): 0.06
- Mean %BS-CV of BPND (CB1 receptor [2]; Caudate): 48.8%
- Median % diff (test–retest) of BPND (CB1 receptor [2]; Caudate): 30.5%
- Median BPND (CB1 receptor [2]; Caudate): 0.9
- Mean %BS-CV of BPND (CB1 receptor [2]; Hippocampus): 125.2%
- Median % diff (test–retest) of BPND (CB1 receptor [2]; Hippocampus): 54.6%
- Median BPND (CB1 receptor [2]; Hippocampus): 1.0
- Mean %BS-CV of BPND (CB1 receptor [2]; IFG): 29.4%
- Median % diff (test–retest) of BPND (CB1 receptor [2]; IFG): 16.0%
- Median BPND (CB1 receptor [2]; IFG): 0.9
- ICC of BPND (CB1 receptor [2]; Pallidum): 0.27
- Mean %BS-CV of BPND (CB1 receptor [2]; Pallidum): 25.1%
- Median % diff (test–retest) of BPND (CB1 receptor [2]; Pallidum): 9.4%
- Median BPND (CB1 receptor [2]; Pallidum): 1.1
- Median % diff (test–retest) of BPND, mean (SD) across regions (CB1 receptor [2]; 7 ROIs): 35.1 (17.4) % and 35.1 ± 17.4%
- ICC of BPND (CB1 receptor [2]; Thalamus): 0.19
- Mean %BS-CV of BPND (CB1 receptor [2]; Thalamus): 108.2%
- Median % diff (test–retest) of BPND (CB1 receptor [2]; Thalamus): 42.3%
- Median BPND (CB1 receptor [2]; Thalamus): 1.0
- Ratio pallidum/pons of VT (CB1 receptor [3]): 3.6
- Mean BS % CV of VT, mean (SD) across regions (CB1 receptor [3]; 8 ROIs): 45% and 44.5 (7.9) % and 44.5 ± 7.9%
- Median % diff (test–retest) of VT, mean (SD) across regions (CB1 receptor [3]; 8 ROIs): 19.7 (8.7) % and 19.7 ± 8.7%
- ICC of VT (CB1 receptor [3]; ACG): 0.76
- Mean BS % CV of VT (CB1 receptor [3]; ACG): 47.4%
- Median % diff (test–retest) of VT (CB1 receptor [3]; ACG): 27.8%
- ICC of VT (CB1 receptor [3]; Accumbens): 0.69
- Mean BS % CV of VT (CB1 receptor [3]; Accumbens): 53.7%
- Median % diff (test–retest) of VT (CB1 receptor [3]; Accumbens): 35.8%
- VT median (CB1 receptor [3]; Accumbens): 8.4
- ICC of VT (CB1 receptor [3]; Caudate): 0.85
- Mean BS % CV of VT (CB1 receptor [3]; Caudate): 48.0%
- Median % diff (test–retest) of VT (CB1 receptor [3]; Caudate): 19.7%
- VT median (CB1 receptor [3]; Caudate): 7.4
- ICC of VT (CB1 receptor [3]; Hippocampus): 0.88
- Mean BS % CV of VT (CB1 receptor [3]; Hippocampus): 50.4%
- Median % diff (test–retest) of VT (CB1 receptor [3]; Hippocampus): 14.8%
- ICC of VT (CB1 receptor [3]; IFG): 0.83
- Mean BS % CV of VT (CB1 receptor [3]; IFG): 42.1%
- Median % diff (test–retest) of VT (CB1 receptor [3]; IFG): 18.1%
- VT median (CB1 receptor [3]; IFG): 8.8
- ICC of VT (CB1 receptor [3]; Pallidum): 0.70
- Mean BS % CV of VT (CB1 receptor [3]; Pallidum): 48.1%
- Median % diff (test–retest) of VT (CB1 receptor [3]; Pallidum): 20.6%
- ICC of VT (CB1 receptor [3]; Pons): 0.95
- Mean BS % CV of VT (CB1 receptor [3]; Pons): 30.2%
- Median % diff (test–retest) of VT (CB1 receptor [3]; Pons): 8.3%
- ICC of VT (CB1 receptor [3]; Thalamus): 0.89
- Mean BS % CV of VT (CB1 receptor [3]; Thalamus): 35.9%
- Median % diff (test–retest) of VT (CB1 receptor [3]; Thalamus): 12.6%

— PMC4283194 (Neuroimage, 2014)
